Data from patent US4363812A, “3-(Tetrazol-5-yl), 4-methyl-8-alkoxy coumarins and anti-allergic compositions thereof” (priority 1978, dated 1982).

How the values were obtained:
[1] = in vivo
[2] = safety margin (LD50 /MED); conditions: in vivo, po

Compound | Relative value of safety margin [1] | selectivity ratio [2]
Cc1c(-c2nnn[nH]2)c(=O)oc2c(Cl)cccc12 [Compound I, reference compound] | 1.0 | 167
CCCCCOc1cccc2cc(-c3nnn[nH]3)c(=O)oc12 [Example 1, 8-n-Pentyloxy-3-(1H-tetrazol-5-yl)coumarin] | 5. | 853
CCOc1cccc2cc(-c3nnn[nH]3)c(=O)oc12 [Example 4, 8-Ethoxy-3-(1H-tetrazol-5-yl)coumarin] | 2.4 | 400
Cc1ccc2oc(=O)c(-c3nnn[nH]3)c(C)c2c1 [J, reference compound] | 0.3 | 21
